Usually IC50 stands for the point on the concentration scale where inhibition reaches its midpoint. The term AC50 denotes the midpoint of the concentration-response curve, whichever way the signal moves.

Sequences of proteins named here, by UniProt entry; tags and fusion partners are left off.
UniProt P08799, whole entry S249N/C312Y: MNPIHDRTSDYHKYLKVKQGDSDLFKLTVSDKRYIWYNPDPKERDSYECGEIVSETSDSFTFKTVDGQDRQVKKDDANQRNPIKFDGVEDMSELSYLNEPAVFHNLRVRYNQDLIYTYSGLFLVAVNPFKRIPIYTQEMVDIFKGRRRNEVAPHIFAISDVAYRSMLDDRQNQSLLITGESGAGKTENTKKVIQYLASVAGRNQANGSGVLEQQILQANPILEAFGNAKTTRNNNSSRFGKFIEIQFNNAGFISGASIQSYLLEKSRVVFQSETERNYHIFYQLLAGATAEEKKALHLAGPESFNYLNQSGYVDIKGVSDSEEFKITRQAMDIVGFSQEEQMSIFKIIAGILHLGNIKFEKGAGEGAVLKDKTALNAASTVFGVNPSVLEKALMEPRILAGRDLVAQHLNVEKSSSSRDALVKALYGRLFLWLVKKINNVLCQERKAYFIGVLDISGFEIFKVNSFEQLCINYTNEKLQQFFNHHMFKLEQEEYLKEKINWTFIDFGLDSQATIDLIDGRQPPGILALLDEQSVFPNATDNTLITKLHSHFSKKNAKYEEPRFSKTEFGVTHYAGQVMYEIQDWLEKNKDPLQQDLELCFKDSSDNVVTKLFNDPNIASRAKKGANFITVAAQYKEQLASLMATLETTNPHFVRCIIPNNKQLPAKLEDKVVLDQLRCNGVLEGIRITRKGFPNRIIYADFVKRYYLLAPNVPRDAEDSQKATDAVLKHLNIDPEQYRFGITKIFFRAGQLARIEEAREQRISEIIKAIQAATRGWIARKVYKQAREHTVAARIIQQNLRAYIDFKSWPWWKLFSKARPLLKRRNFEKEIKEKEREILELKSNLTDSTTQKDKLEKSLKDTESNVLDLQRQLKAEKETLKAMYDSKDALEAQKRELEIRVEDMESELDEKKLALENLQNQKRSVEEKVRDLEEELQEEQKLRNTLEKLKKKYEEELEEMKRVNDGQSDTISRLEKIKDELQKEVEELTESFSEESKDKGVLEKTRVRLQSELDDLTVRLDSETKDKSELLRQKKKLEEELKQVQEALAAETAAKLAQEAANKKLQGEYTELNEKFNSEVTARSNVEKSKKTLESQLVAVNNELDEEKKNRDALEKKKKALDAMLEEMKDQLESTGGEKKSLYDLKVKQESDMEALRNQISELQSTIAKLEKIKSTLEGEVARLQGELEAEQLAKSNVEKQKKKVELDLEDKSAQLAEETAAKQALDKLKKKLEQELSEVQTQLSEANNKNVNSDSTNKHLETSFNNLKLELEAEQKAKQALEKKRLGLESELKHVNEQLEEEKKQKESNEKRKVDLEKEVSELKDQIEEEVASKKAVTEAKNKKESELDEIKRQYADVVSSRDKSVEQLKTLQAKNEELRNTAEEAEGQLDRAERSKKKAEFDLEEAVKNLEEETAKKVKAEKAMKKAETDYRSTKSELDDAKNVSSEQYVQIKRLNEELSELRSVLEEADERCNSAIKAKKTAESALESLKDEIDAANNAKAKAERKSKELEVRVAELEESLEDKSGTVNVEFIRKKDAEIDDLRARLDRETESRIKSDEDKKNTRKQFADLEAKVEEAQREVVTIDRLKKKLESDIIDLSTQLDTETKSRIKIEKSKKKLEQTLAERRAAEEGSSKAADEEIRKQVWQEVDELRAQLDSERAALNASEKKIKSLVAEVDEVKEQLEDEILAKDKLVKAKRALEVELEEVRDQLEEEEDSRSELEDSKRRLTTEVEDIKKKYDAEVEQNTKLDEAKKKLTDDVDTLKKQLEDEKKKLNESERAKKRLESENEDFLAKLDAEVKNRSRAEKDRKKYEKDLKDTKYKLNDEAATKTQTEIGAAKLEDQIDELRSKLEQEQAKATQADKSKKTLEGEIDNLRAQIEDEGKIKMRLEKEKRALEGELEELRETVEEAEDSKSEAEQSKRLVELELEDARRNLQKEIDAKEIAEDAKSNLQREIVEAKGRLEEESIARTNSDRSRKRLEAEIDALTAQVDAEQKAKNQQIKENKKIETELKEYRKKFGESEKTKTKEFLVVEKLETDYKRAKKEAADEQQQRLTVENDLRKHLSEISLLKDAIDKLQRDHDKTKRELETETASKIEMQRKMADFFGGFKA

For one assay, the target named is myosin-2 (Dictyostelium discoideum, UniProt P08799, C312Y/S249N). The assay is described as follows: Basal ATPase activity of myosin-2 (FIG. 19c). It is filed as biochemical. The protocol: (c) KIN-77 inhibits the basal ATPase activity of myosin-2 approximately 3-fold with IC50=5.3 μM.
Steady-state kinetics. Basal and actin-activated Mg^2+-ATPase activities were measured with the NADH-coupled assay^19 in a buffer containing 25 mM HEPES, 25 mM KCl, and 4 mM MgCl2, 0.5 mM DTT at pH 7.0 in the presence of 1 mM ATP at 25° C. PBP was added to the reaction mixture in the absence of nucleotide and incubated for 20 minutes before the reaction was started by the addition of ATP. NADH oxidation was followed using the change in absorption at 340 nm in a Beckman DU-800 spectrophotometer.

For the compound `Oc1c(Br)cc(Br)cc1-c1[nH]c2cc(Br)c(Br)cc2c1Br`, on myosin-2, the “fold inhibition of basal ATPase activity” value was “approximately 3 fold”. Besides, the IC50 on myosin-2 (read-out: IC50, basal ATPase activity) was determined as 5.3 µM. In addition, in the assay with rabbit myosin-2, the AC50 was determined as 19.2 µM and the IC50 was 95.6 µM.

These data come from patent publication US20110105554A1, “MEANS FOR TREATING MYOSIN-RELATED DISEASES” (KINARIS BIOMEDICALS GMBH, priority 2007, published 2011).
